Reference: patent US11098057B2, “9,10,11,12-tetrahydro-8H-[1,4]diazepino[5′,6′:4,5]thieno[3,2-F]quinolin-8-one compounds and uses thereof” (Celgene CAR LLC, priority 2017, dated 2021)

Chains of the proteins cited; added tags and fusions are not shown.
UniProt P49137, whole entry: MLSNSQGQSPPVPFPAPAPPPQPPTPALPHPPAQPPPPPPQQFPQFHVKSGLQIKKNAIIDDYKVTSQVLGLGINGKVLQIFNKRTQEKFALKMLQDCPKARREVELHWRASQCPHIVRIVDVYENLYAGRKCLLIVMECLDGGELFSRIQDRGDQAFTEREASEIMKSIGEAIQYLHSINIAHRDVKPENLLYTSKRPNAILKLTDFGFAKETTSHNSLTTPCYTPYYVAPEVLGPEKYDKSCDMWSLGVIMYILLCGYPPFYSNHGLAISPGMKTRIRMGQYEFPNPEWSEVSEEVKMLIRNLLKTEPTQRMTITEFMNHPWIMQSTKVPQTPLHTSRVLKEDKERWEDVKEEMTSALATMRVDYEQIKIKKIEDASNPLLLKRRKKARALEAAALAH

Molecular target: MK2 protein (Homo sapiens, UniProt P49137)
Conditions: 10-fold excess of compound to protein, 60 minutes at room temperature, MALDI
Excerpt: (§1) The procedure for this assay follows.
as §1

SMILES: CCOCc1cnc(Cl)nc1Oc1ccc2c(ccc3sc4c(c32)NC[C@H](C)NC4=O)n1 [Compound I-82]
- Mass Modification: F (mass modification of 31-69%)
